Test results published in patent US20070160684A1, “Methods for increasing cancer cell chemosensitivity” (priority 2005, published 2007).

Experiments:
[1] = test system: Pa-4 cells
[2] = test system: Pa-4/HMGA2 cells; assay: FACS analysis after caffeine and Dox (G2/M, sub-G1); assay type: cell-based; settings: 4 mM caffeine 1 hour, then 1 μM Dox and 4 mM caffeine 48 hours
Experimental: Pa-4 and Pa-4/HMGA2 cells were seeded at 50-80% confluency in 35 mm dishes and serum starved overnight to synchronize cell cycle. […] Following treatment, cells were fixed in 70% ethanol overnight, stained with 20 μg/ml propidium iodide, and subjected to FACS analysis.
Apoptosis was quantified by assessing sub-G1 cell populations.

Cn1c(=O)c2c(ncn2C)n(C)c1=O [caffeine]
cell cycle distribution / cells in G2/M, single agent ([1]; 4 mM caffeine or 1 μM Dox, 48 hours): had no effect on cell cycle distribution
effect on Dox-induced apoptosis ([1]; caffeine with Dox): did not increase the rate of Dox-induced apoptosis
effect on Dox-induced G2/M arrest [2]: greatly reduced Dox-induced G2/M arrest
